Biological target: recombinant human S1P1 receptor (Homo sapiens, UniProt P21453)
Test: GTPγS assay to determine EC50 values
Assay type: biochemical
Conditions: 35S-GTPγS binding, membrane preparations of CHO cells expressing recombinant human S1P1 receptor
Description: GTPγS binding assays are performed in 96 well microtiter plates (Nunc, 442587) in a final volume of 200 μl, using membrane preparations of CHO cells expressing recombinant human S1P1 receptor. Assay conditions are 20 mM Hepes (Fluka, 54461), 100 mM NaCl (Fluka, 71378), 5 mM MgCl2 (Fluka, 63064), 0.1% BSA (Calbiochem, 126609), 1 μM GDP (Sigma, G-7127), 2.5% DMSO (Fluka, 41644), 50 pM ^355-GTPγS (Amersham Biosciences, SJ1320). The pH is 7.4. Test compounds are dissolved and diluted in 100% DMSO and pre-incubated at room temperature for 30 min in 150 μl of the above assay buffer, in the absence of ^355-GTPγS. After addition of 50 μl of ^355-GTPγS, the assay is incubated for 1 h at rt. The assay is terminated by transfer of the reaction mixture to a Multiscreen plate (Millipore, MAHFC1H60) using a cell harvester from Packard Biosciences, and the plates are washed with ice-cold 10 mM Na2HPO4/NaH2PO4 (70%/30%), dried, sealed at the bottom and, after addition of 25 μl MicroScint20 (Packard Biosciences, order #6013621), sealed on the top. Membrane-bound ^35S-GTPγS is measured with a TopCount from Packard Biosciences.
EC50 is the concentration of agonist inducing 50% of the maximal specific ^35S-GTPγS binding. Specific binding is determined by subtracting non-specific binding from maximal binding. […]

Protein sequences, listed by entry. Tags and fused reporters are not part of them.
UniProt P21453, whole entry: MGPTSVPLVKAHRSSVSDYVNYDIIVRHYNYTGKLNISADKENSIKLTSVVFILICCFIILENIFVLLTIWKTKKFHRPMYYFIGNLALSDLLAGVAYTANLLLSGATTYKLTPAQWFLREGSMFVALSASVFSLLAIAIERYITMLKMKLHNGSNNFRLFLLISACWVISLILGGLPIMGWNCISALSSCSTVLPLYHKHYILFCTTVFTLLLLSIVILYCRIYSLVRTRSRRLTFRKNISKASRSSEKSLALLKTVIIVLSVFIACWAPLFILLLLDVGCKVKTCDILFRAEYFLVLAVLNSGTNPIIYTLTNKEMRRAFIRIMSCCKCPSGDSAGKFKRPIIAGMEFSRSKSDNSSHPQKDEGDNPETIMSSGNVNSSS

Row | EC50 [nM] | Structure (SMILES)
1 | 4.1 | CCc1cc(-c2noc(-c3cc(C)cc(CN(C)C)c3)n2)cc(C)c1OC[C@@H](O)CNC(=O)CO [Example 15, N—((S)-3-{4-[5-(3-dimethylaminomethyl-5-methyl-phenyl)-[1,2,4]oxadiazol-3-yl]-2-ethyl-6-methyl-phenoxy}-2-hydroxy-propyl)-2-hydroxy-acetamide]
2 | 7.1 | CCc1cc(-c2noc(-c3ccc(CN(C)C)c(C)c3)n2)cc(C)c1OC[C@@H](O)CNC(=O)CO [Example 40, N—((S)-3-{4-[5-(4-dimethylaminomethyl-3-methyl-phenyl)-[1,2,4]oxadiazol-3-yl]-2-ethyl-6-methyl-phenoxy}-2-hydroxy-propyl)-2-hydroxy-acetamide]
